The values below come from PubChem BioAssay AID1423 (NMMLSC, 2008).

By UniProt entry, the sequences of proteins in these tests, tags left out.
UniProt P09471, whole entry, looked up: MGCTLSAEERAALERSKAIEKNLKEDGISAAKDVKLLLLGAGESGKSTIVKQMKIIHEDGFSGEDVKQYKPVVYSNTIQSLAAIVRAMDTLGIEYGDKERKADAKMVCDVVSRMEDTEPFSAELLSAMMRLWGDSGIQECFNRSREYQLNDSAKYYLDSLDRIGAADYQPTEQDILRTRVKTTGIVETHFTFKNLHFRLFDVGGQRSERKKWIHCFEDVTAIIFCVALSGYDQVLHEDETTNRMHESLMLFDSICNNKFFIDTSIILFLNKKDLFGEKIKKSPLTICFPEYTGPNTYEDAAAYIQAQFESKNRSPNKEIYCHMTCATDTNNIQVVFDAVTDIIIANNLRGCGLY

Only a part is listed here, and it is no random draw. Activity calls are given as the source filed them. Cut-off read from the data, not from the text of the source: active = response below about 60% or above about 140%; inactive = in between.

The assay concerns the target Guanine nucleotide-binding protein G(o) subunit alpha (Homo sapiens) (UniProt P09471). Put plainly: compounds changing RGS8 association with Galphao – biochemical, multiplexed bead flow cytometry, primary screen (AID 1423).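 Note: Galphao activated as the GDP aluminium fluoride complex binding bead-coupled RGS8.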 As to conditions: at 10 µM, actives lie on both sides.
As to `CC(C)C(=O)NC(Sc1ccccc1)C(Cl)(Cl)Cl` (configuration not stated), the response (percent of control binding) was inactive: 102%.

Take `O=P(Nc1nccs1)(c1ccccc1)c1ccccc1`: the response (percent of control binding) was inactive: 96.6%.

`c1nnnn1CCn1cnnn1`: the response (percent of control binding) was inactive: 92.8%.

As to `C[C@@H]1C=CCP(=O)(Oc2ccccc2)O1` (some centres not stated), the response (percent of control binding) was inactive: 98.5%.

`C[C@H]1OP(=O)(Oc2ccccc2)C[C@@H]2O[C@@H]21` (some centres not stated): the response (percent of control binding) was inactive: 101%.

`CC(=O)Nc1ccc([As](=O)(O)O)c(O)c1`: the response (percent of control binding) was inactive: 101%.

Regarding `CC(=O)Nc1ccc(Oc2c([N+](=O)[O-])cc([N+](=O)[O-])cc2[N+](=O)[O-])cc1`, the response (percent of control binding) was inactive: 102%.

`O=P1(Nc2nc3ccc(Cl)cc3s2)COc2ccccc2O1` (configuration not stated): the response (percent of control binding) was inactive: 101%.

Turning to `CCOc1ccc(C2=NCC(CBr)S2)cc1` (configuration not stated), the response (percent of control binding) is inactive: 112%.

Consider `CC(C)(C)C(=O)NC(Sc1ccccc1)C(Cl)(Cl)Cl` (configuration not stated), for which the response (percent of control binding) is inactive: 98.7%.

On to `CCC(=O)N1C2C3N(C(=O)CC)C1C1N(C(=O)CC)C(C(N1C(=O)CC)N3C(=O)CC)N2C(=O)CC`, for which the response (percent of control binding) is inactive: 111%.

For `COC(=O)c1cc2c(s1)N=C(c1ccccc1)N(C)P2(=O)N1CCOCC1` (configuration not stated), the response (percent of control binding) is inactive: 103%.

In the case of `Cc1ccc(OP(=O)(Nc2ccccn2)Oc2ccc(C)cc2)cc1`, the response (percent of control binding) was inactive: 103%.

Regarding `CC(=O)NC(SC(=S)N(CC(C)C)CC(C)C)C(Cl)(Cl)Cl` (configuration not stated), the response (percent of control binding) is inactive: 104%.

`Cc1ccccc1OP(=O)(Nc1ccccn1)Oc1ccccc1C`: the response (percent of control binding) was inactive: 98.5%.

Consider `CN(C)C(=O)Oc1noc2ccccc12`, for which the response (percent of control binding) was inactive: 95.4%.

Turning to `O=c1c2cc([N+](=O)[O-])ccc2[nH]c2c([N+](=O)[O-])cc([N+](=O)[O-])cc12`, the response (percent of control binding) was inactive: 102%.

Consider `c1ccc(-c2nn[nH]n2)c(-c2nn[nH]n2)c1`, for which the response (percent of control binding) was active: 48.7%.

On to `CCOC(=O)NC(Sc1ccccc1)C(Cl)(Cl)Cl` (configuration not stated), for which the response (percent of control binding) was inactive: 92.9%.

In the case of `Cc1ccc(NP(=O)(Oc2cccc(C)c2)Oc2cccc(C)c2)nc1`, the response (percent of control binding) is inactive: 102%.

Turning to `CCNC(=S)/N=C(\N)N[N+](=O)[O-]`, the response (percent of control binding) was inactive: 97.1%.

As for `O=C(NC1CCS(=O)(=O)C1)NP(=S)(Oc1ccccc1)Oc1ccccc1` (configuration not stated), the response (percent of control binding) was inactive: 101%.
